This is an account of results in PubChem BioAssay AID540336 (Broad Institute, 2011).

Amino acid sequences for entries named in this document (tags omitted).
UniProt Q5AAJ8, whole entry: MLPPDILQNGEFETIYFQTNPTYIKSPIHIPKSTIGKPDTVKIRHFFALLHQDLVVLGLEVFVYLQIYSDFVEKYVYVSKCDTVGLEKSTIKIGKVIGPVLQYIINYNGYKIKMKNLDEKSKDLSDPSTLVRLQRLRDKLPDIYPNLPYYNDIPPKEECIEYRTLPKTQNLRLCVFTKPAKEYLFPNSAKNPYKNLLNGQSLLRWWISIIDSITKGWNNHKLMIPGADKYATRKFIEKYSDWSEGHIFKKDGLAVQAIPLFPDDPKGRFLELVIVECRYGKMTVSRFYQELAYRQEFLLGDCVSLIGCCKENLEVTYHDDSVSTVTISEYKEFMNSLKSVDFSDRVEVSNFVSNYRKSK

The entries are a selection whose mix differs from that of the whole data set. Some tests of the compounds listed are not included; inactive here does not mean inactive elsewhere. Calls of active or inactive are those of the source.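 The calls were made as follows: active = inhibition of at least 50% in every replicate; inconclusive = best replicate reaches 50% inhibition but some replicates fall short; inactive = the rest.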

By inhibition is commonly meant the change of the read-out against control, counted positive when it falls.

In the assay the target is Histone acetyltransferase RTT109 (Candida albicans (strain SC5314 / ATCC MYA-2876)) (UniProt Q5AAJ8). Nature of the assay: Rtt109-Vps75 histone acetyltransferase blockade – biochemical, ThioGlo CoA-SH fluorescence, plate reader, primary screen (AID 540336). Particulars: purified Rtt109/Vps75, ThioGlo CoA-SH fluorescence, 4 h; at 34.9 µM; stronger effect = higher value.
Turning to `COc1cc(C(=O)NCC2(N(C)C)CCCCC2)c([N+](=O)[O-])cc1OC`, the inhibition is inactive: -6.45%. Regarding `CN(C)C1(CNC(=O)c2ccc(Br)cc2)CCCCC1`, the inhibition is inactive: 11.7%. In the case of `O=C(NCC1(N2CCCCC2)CCCCC1)c1cccc(Cl)c1`, the inhibition is inactive: 1.25%. Take `COc1ccc(Cl)cc1C(=O)NCC1(N(C)C)CCCCC1`: the inhibition is inactive: 11.1%. With `COc1cccc(C(=O)NCC2(N3CCCCC3)CCCCC2)c1`, the inhibition was inactive: -35.9%. Then `O=C(OC1CN2CCC1CC2)C(CO)(c1ccccc1)c1ccccc1` (centres undefined), with inactive: 0.347%; and `CN(C)c1cccc(C(=O)NCC2(N(C)C)CCCCC2)c1`, with inactive: -15.7%; and `O=C(OCCN1CCCC1)C(O)(c1ccccc1)c1ccccc1`, with inactive: 2.52%. Then `CC(C)Oc1ccc(C(=O)NCC2(N(C)C)CCCCC2)cc1`, with inactive: 7.63%; and `COc1ccc(Br)c(C(=O)NCC2(N3CCCCC3)CCCCC2)c1`, with inactive: 5.14%; and `O=C(NCC1(N2CCCCC2)CCCCC1)c1cc([N+](=O)[O-])ccc1Cl`, with inactive: 2.44%.

Turning to `Cc1ccc(C(=O)NCC2(N3CCCCC3)CCCCC2)cc1`, the inhibition is inactive: 0.764%.

In the case of `CC(C)N1C(=O)CC2(CCN(CCOC(=O)C(O)(c3ccccc3)c3ccccc3)CC2)C1=O`, the inhibition was inactive: -0.239%. For `COc1cc(SC)ccc1C(=O)NCC1(N(C)C)CCCCC1`, the inhibition is inactive: -1.45%. Then `CCN(CC)CC(C)C(C)OC(=O)C(O)(c1ccccc1)c1ccccc1` (centres undefined), with inactive: 0.696%; and `CN(C)C1CCCC1OC(=O)C(O)(c1ccccc1)c1ccccc1` (centres undefined), with inactive: -6.38%; and `CN(C)c1ccc(C(=O)NCC2(N(C)C)CCCCC2)cc1`, with inactive: -4.81%. Then `Cc1ccccc1C(=O)NCC1(N2CCCCC2)CCCCC1`, with inactive: 0.275%; and `O=C(NCC1(N2CCCCC2)CCCCC1)c1cccc(Br)c1`, with inactive: -1.19%; and `Cc1cc(C(=O)NCC2(N3CCCCC3)CCCCC2)ccc1[N+](=O)[O-]`, with inactive: -0.263%. As for `CCN1CCCC(OC(=O)C2(O)c3ccccc3C=Cc3ccccc32)C1` (centres undefined), the inhibition was inactive: -1.87%. Then `COc1ccc(C(=O)NCC2(N(C)C)CCCCC2)cc1`, with inactive: 2.34%; and `O=C(NCC1(N2CCCCC2)CCCCC1)c1cc(F)c(F)cc1Cl`, with inactive: 0.202%. As to `C=CCN1CCN(CCOC(=O)C(O)(c2ccccc2)c2ccccc2)CC1`, the inhibition is inactive: -7.62%.
